This assay addresses CBP (Homo sapiens (Human), UniProt Q92793). Nature of the assay: CBP TR-FRET binding assay.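 Note: displacement of a biotinylated small-molecule ligand from purified recombinant CBP read by TR-FRET, DMSO-only wells as control, IC50 from nonlinear curve fit.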 As to conditions: His/Flag tagged CBP 4 nM, biotin-ligand 60 nM; read-out: CBP HTRF IC50.

By UniProt entry, the sequences of proteins in these tests, tags left out.
UniProt Q92793, whole entry: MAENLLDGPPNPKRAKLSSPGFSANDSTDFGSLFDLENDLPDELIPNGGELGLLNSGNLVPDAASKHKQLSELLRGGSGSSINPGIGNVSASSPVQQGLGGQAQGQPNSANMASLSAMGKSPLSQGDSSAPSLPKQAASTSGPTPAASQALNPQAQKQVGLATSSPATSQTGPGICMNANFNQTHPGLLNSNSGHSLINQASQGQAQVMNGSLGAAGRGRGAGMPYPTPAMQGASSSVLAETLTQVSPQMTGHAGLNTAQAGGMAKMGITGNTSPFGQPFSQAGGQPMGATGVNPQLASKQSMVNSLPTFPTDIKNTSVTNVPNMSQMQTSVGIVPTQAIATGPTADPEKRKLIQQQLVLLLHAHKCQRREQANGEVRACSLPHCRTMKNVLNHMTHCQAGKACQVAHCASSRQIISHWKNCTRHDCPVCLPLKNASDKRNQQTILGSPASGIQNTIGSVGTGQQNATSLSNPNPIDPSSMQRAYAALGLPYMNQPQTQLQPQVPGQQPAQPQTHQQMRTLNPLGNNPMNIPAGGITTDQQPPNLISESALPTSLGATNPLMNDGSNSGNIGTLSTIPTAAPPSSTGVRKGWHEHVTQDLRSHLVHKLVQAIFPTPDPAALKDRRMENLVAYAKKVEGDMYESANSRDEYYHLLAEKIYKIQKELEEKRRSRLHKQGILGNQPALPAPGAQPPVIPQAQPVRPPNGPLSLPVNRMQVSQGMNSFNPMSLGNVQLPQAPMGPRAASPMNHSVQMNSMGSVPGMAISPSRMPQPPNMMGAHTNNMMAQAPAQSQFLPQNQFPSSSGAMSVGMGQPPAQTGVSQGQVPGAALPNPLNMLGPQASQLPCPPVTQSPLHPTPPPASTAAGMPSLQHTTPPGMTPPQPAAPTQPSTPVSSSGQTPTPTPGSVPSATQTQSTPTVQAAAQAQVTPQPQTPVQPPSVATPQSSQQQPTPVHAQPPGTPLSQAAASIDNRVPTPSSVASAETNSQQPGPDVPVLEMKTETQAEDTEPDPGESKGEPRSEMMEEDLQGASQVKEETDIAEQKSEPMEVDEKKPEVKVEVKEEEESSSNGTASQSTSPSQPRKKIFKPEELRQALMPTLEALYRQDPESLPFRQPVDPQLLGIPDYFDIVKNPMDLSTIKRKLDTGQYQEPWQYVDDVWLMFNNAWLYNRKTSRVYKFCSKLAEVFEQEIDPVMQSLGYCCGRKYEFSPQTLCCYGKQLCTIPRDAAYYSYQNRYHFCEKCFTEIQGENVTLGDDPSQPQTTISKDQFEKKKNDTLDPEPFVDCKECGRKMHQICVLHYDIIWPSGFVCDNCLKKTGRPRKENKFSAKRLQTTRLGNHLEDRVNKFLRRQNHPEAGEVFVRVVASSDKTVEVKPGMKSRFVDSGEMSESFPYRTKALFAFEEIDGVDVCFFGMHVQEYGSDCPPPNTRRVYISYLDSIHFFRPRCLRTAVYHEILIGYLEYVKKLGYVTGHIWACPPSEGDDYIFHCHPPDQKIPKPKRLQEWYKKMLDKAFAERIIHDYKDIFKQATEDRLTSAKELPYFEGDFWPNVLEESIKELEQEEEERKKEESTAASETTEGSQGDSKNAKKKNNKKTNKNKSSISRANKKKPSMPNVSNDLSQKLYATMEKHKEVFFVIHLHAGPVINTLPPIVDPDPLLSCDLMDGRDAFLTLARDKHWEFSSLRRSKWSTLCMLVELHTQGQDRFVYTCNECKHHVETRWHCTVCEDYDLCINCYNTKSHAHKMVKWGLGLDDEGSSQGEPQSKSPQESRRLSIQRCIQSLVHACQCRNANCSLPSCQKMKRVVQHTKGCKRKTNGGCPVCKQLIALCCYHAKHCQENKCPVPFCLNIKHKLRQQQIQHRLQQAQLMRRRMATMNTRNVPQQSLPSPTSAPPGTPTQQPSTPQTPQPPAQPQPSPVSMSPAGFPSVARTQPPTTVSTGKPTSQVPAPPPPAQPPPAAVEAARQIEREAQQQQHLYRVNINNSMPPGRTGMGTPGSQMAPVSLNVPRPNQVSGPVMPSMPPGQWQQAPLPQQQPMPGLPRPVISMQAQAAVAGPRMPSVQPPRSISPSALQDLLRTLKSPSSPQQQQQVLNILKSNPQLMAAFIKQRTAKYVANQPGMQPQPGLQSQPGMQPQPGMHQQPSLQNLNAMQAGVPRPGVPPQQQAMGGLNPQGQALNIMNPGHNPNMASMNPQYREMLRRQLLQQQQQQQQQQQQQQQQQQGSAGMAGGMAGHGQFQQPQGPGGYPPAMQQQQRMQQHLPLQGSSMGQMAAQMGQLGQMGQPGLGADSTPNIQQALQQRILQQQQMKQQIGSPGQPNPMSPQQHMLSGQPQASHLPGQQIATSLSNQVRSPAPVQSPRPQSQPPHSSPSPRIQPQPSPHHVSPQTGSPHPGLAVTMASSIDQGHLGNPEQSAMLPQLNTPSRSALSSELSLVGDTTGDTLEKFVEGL

In the case of `C[C@@H]1Nc2c(cccc2N2CCCc3cc(-c4cnn(C)c4)c(C(F)F)cc32)NC1=O` [Example 80, (S)-5-(7-(difluoromethyl)-6-(1-methyl-1H-pyrazol-4-yl)-3,4-dihydroquinolin-1(2H)-yl)-3-methyl-3,4-dihydroquinoxalin-2(1H)-one], the IC50 came to 206 nM.

Regarding `C[C@H]1Nc2c(cccc2N2CCCc3cc(-c4cnn(C)c4)c(C(F)F)cc32)NC1=O` [Example 81, (R)-5-(7-(difluoromethyl)-6-(1-methyl-1H-pyrazol-4-yl)-3,4-dihydroquinolin-1(2H)-yl)-3-methyl-3,4-dihydroquinoxalin-2(1H)-one], the IC50 is 102 nM.

The values above are taken from patent US10696655B2, “Therapeutic compounds and uses thereof” (GENENTECH, INC., priority 2017, dated 2020).
